Experimental findings from ChEMBL document CHEMBL4680369, “Synthesis of HDAC Inhibitor Libraries via Microscale Workflow” (ACS Med Chem Lett, 2021) are described below.

By UniProt entry, the sequences of proteins in these tests, tags left out. Where a name states a change or a piece, a line headed by the entry shows the natural chain unless it says otherwise.
UniProt O15379: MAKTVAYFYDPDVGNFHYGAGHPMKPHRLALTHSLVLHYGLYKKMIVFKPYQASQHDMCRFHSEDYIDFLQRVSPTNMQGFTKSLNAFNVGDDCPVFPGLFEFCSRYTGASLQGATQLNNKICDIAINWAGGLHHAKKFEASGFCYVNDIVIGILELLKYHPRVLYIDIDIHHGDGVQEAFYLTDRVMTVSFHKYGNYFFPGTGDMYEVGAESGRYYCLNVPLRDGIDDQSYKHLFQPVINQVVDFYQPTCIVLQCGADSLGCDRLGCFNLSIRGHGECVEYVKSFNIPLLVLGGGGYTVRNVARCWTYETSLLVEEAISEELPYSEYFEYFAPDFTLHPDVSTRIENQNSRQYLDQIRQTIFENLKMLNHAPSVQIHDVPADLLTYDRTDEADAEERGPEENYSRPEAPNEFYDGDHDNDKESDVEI
UniProt Q13547, whole entry: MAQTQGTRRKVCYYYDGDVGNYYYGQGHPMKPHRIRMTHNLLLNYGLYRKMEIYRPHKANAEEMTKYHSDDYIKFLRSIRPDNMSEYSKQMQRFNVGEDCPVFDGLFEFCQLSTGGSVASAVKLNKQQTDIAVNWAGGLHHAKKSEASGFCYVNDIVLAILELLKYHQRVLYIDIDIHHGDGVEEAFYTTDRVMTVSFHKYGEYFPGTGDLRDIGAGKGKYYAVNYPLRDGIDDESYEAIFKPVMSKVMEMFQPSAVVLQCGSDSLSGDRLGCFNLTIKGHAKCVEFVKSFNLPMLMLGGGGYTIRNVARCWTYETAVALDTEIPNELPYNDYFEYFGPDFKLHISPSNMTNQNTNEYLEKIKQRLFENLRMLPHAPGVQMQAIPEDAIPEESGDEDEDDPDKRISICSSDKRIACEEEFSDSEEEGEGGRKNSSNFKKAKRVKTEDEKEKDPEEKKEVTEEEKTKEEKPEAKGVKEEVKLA

The term IC50 denotes the point on the concentration scale where inhibition reaches its midpoint. Read a high IC50 as lower potency.

In assay [1] the target is T1, Histone deacetylase 3 (Homo sapiens, UniProt O15379). Briefly: Inhibition of HDAC3 (unknown origin) using compound purified by traditional preparative HPLC work-flow.
For assay [2], the target named is T1, Histone deacetylase 3.
For a further assay, the target named is Histone deacetylase 1 (Homo sapiens, UniProt Q13547). In words: Inhibition of HDAC1 (unknown origin) using compound purified by traditional preparative HPLC work-flow.

Regarding `CCC(=O)CCCCC[C@H](NC(=O)[C@H]1CC12CCN(C)CC2)c1ncc(-c2cn(C)c3ccccc23)[nH]1`, on Histone deacetylase 3 [1], the IC50 worked out at 0.2 nM.

As for `CCC(=O)CCCCC[C@H](NC(=O)[C@H]1CC12CCN(C)CC2)c1ncc(-c2ccn3ncnc3c2)[nH]1`, the IC50 was determined as 33 nM on Histone deacetylase 3 [2] and 55 nM against Histone deacetylase 3 [1].

As for `CCC(=O)CCCCC[C@H](NC(=O)[C@H]1CC12CCN(CC)CC2)c1ncc(-c2cc(C(F)(F)F)ccc2OC)[nH]1`, on Histone deacetylase 3 [2], the IC50 stood at 0.7 nM.

As for `CCC(=O)CCCCC[C@H](NC(=O)[C@H]1CC12CCN(C)CC2)c1ncc(-c2ccc(C)nc2OC)[nH]1`, the values for the concentration for half-maximal inhibition (IC50) at Histone deacetylase 3 [2] and against Histone deacetylase 3 [1] were 1.7 nM and 2.1 nM, respectively.

In the case of `CCC(=O)CCCCC[C@H](NC(=O)[C@H]1CC12CCN(CC)CC2)c1ncc(-c2cc(C(C)C)c(F)cc2OC)[nH]1`, the 50% inhibitory concentration (IC50) against Histone deacetylase 3 [2] is 14 nM.

For `CCC(=O)CCCCC[C@H](NC(=O)[C@H]1CC12CCN(C)CC2)c1ncc(-c2ccnc(N3CCOCC3)c2F)[nH]1`, the IC50 came out at 11 nM at Histone deacetylase 3 [2] and 19 nM at Histone deacetylase 3 [1].

Regarding `CCC(=O)CCCCC[C@H](NC(=O)[C@H]1CC12CCN(C)CC2)c1ncc(-c2ccc(-c3cccnc3)nc2)[nH]1`, the figures for the IC50 on Histone deacetylase 3 [2] and on Histone deacetylase 3 [1] were 1.4 nM and 3.7 nM, respectively.

As to `CCOc1ncc(-c2cnc([C@H](CCCCCC(=O)CC)NC(=O)[C@H]3CC34CCN(C)CC4)[nH]2)cn1`, the values for the IC50 at Histone deacetylase 3 [2] and against Histone deacetylase 3 [1] were 63 nM and 93 nM, respectively.

In the case of `CCC(=O)CCCCC[C@H](NC(=O)[C@H]1CC12CCN(C)CC2)c1ncc(C2=CC(=O)N(C)CC2)[nH]1`, the IC50 stood at 187 nM on Histone deacetylase 3 [2] and 257 nM against Histone deacetylase 3 [1].

With `CCC(=O)CCCCC[C@H](NC(=O)[C@H]1CC12CCN(CC)CC2)c1ncc(-c2c(F)cccc2OC)[nH]1`, on Histone deacetylase 3 [2], the IC50 was 0.7 nM.

On to `CCC(=O)CCCCC[C@H](NC(=O)[C@H]1CC12CCN(CC)CC2)c1ncc(-c2ccc(C(=O)Nc3cc(C(F)(F)F)ccn3)cc2OC)[nH]1`, for which the IC50 at Histone deacetylase 3 [2] is 25 nM.

Regarding `CCC(=O)CCCCC[C@H](NC(=O)[C@H]1CC12CCN(C)CC2)c1ncc(-c2ccc(-n3nc(C)cc3C)cc2)[nH]1`, the IC50 worked out at 3.5 nM on Histone deacetylase 3 [2] and 4.7 nM on Histone deacetylase 3 [1].

For `CCC(=O)CCCCC[C@H](NC(=O)[C@H]1CC12CCN(CC)CC2)c1ncc(-c2cc([N+](=O)[O-])ccc2OC)[nH]1`, on Histone deacetylase 3 [2], the IC50 stood at 2.9 nM.

On Histone deacetylase 3 [2], `CCOC(=O)c1cc2cc(OC)c(-c3cnc([C@H](CCCCCC(=O)CC)NC(=O)[C@H]4CC45CCN(CC)CC5)[nH]3)cc2o1` registered an IC50 of 0.4 nM.

`CCC(=O)CCCCC[C@H](NC(=O)[C@H]1CC12CCN(C)CC2)c1ncc(-c2cnc3cccnc3c2)[nH]1`: the half-inhibitory concentration (IC50) turned out to be 11 nM on Histone deacetylase 3 [2] and 20 nM at Histone deacetylase 3 [1].

Regarding `CCC(=O)CCCCC[C@H](NC(=O)[C@H]1CC12CCN(C)CC2)c1ncc(-c2ccc(C(=O)NC3CCOC3)cc2)[nH]1` (stereo not given in full), the results for the IC50 at Histone deacetylase 3 [2] and against Histone deacetylase 3 [1] were 4.5 nM and 3.4 nM, respectively.

For the compound `CCC(=O)CCCCC[C@H](NC(=O)[C@H]1CC12CCN(C)CC2)c1ncc(-c2cnc(-n3cc(C)cn3)nc2)[nH]1`, on Histone deacetylase 3 [2], the IC50 is 76 nM.

In the case of `CCC(=O)CCCCC[C@H](NC(=O)[C@H]1CC12CCN(C)CC2)c1ncc(-c2ccc3[nH]c4ccccc4c3c2)[nH]1`, the IC50 against Histone deacetylase 1 and at Histone deacetylase 3 [1] was 0.2 nM in each case.

`CCC(=O)CCCCC[C@H](NC(=O)[C@H]1CC12CCN(CC)CC2)c1ncc(C2=CCC(C)N=C2OC)[nH]1` (stereo not given in full): the IC50 at Histone deacetylase 3 [2] is below 0.2 nM.

`CCOC(=O)C1CC1c1ccc(OC)c(-c2cnc([C@H](CCCCCC(=O)CC)NC(=O)[C@H]3CC34CCN(CC)CC4)[nH]2)c1` (stereo not given in full) returned a 50% inhibitory concentration (IC50) against Histone deacetylase 3 [2] of 0.7 nM.

In the case of `CCC(=O)CCCCC[C@H](NC(=O)[C@H]1CC12CCN(CC)CC2)c1ncc(-c2c(F)cc(C(=O)Nc3cc(C(F)(F)F)ccn3)cc2OC)[nH]1`, at Histone deacetylase 3 [2], the IC50 is 16 nM.

On to `CCC(=O)CCCCC[C@H](NC(=O)[C@H]1CC12CCN(CC)CC2)c1ncc(-c2cc(C(=O)OC)c(F)cc2OC)[nH]1`, for which the midpoint of inhibition against Histone deacetylase 3 [2], the IC50, lay at 20 nM.

In the case of `CCC(=O)CCCCC[C@H](NC(=O)[C@H]1CC12CCN(CC)CC2)c1ncc(-c2cccc(C(F)(F)F)c2OC)[nH]1`, half-maximal inhibition on Histone deacetylase 3 [2] (IC50) required 6.7 nM.

For the compound `CCC(=O)CCCCC[C@H](NC(=O)[C@H]1CC12CCN(CC)CC2)c1ncc(-c2cc(C#N)ccc2OC)[nH]1`, the IC50 against Histone deacetylase 3 [2] was 2.3 nM.

On Histone deacetylase 3 [2], `CCC(=O)CCCCC[C@H](NC(=O)[C@H]1CC12CCN(CC)CC2)c1ncc(-c2c(OC)ccc(F)c2F)[nH]1` yielded an IC50 of 289 nM.
